Values of other authors as cited in patent US6599913B1, “Treating allergic and inflammatory conditions” (Schering Corporation, priority 2001, dated 2003).

Biological target: T1, rat OATP1 (Rattus norvegicus, UniProt P46720)
T1 sequence (P46720 1-670): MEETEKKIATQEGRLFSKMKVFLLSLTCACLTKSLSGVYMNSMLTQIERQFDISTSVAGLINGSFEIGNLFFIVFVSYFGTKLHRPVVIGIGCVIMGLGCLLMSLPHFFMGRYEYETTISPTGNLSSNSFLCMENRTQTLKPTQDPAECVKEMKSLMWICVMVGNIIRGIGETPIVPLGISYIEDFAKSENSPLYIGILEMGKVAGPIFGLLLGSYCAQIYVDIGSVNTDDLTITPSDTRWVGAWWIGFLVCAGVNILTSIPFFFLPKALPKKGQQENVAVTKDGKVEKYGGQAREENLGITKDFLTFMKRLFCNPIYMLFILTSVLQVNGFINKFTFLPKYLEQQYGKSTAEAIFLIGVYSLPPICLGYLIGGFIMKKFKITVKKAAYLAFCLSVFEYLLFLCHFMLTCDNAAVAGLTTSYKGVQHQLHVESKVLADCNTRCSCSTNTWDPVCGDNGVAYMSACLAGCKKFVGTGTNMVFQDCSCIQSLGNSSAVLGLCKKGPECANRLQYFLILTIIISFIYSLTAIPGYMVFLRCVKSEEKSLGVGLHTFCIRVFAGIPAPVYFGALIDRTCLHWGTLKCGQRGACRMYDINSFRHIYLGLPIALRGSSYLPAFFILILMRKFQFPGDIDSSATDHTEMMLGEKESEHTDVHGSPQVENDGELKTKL
Conditions: at 10 μM; cited from earlier work

corticosterone sulfate
Inhibition of rat OATP1: effectively inhibits
